## Binding of CDR-mutated scFvs to a peptide of the spike HR2 region

Reference: Engelhart et al. 2022, doi:10.1038/s41597-022-01779-4. File: FLAb, binding data.

Binding partner: SARS-CoV-2 spike HR2 peptide, sequence PDVDLGDISGINAS.

Parent: Ab-14, a human scFv built as VH, a (GGGGS)3 linker, VL. Only the CDRs of the light chain vary.
VH: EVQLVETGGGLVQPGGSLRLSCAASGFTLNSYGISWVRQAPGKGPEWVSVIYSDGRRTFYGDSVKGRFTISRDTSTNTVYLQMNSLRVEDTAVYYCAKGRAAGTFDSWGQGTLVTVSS
VL: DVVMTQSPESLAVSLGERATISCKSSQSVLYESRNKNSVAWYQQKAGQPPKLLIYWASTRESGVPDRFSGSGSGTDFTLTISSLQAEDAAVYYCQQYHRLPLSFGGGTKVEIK

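Phage display of a naive human antibody library on the peptide gave the parent. Library AAYL50 holds single substitutions and randomly drawn double and triple substitutions in the CDRs. AlphaSeq pools MATa yeast showing the antibodies with MATalpha yeast showing the peptide. Mating (16 h, 30 °C) was followed by selection of diploids and sequencing of their barcodes. Read counts were normalised to the haploid input and turned into Kd by a linear fit to BCL2-family pairs of known affinity, for each replicate. Mating was done three times.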

Changes read parent residue, position, new residue, counted from the first residue of the VL shown.
Numbers give log10(Kd / nM), so 0 is 1 nM and 3 is 1 µM. Smaller is tighter.
Averages over replicates are reported, and they cover detected replicates only.
A pair that was not seen in any replicate is written "nd"; this usually means weak binding, but a binder can also be missed.
For reference, the parent read 0.65 as the reference entry and 1.68 as a member of this library.
Background: pairings of library AAYL50 with three empty control strains gave a value in 18% of cases (median 4.19, 5th percentile 2.99). Values in that range, when seen in few replicates, are hard to tell from nonspecific mating. Also given: how often the same scFv was detected with the empty control strains.

| changes | mean, log10 nM | replicates with signal | empty controls |
|---|---|---|---|
| S25N+S28A+K36G | 1.48 | 3/3 | 0/9 |
| S58T+R60G+Q95W | nd | 0/3 | 1/9 |
| Q27A+N35W+P101D | nd | 0/3 | 3/9 |
| K24S+W56H+A57C | 1.18 | 3/3 | 2/9 |
| R60I+Y97N+H98V | 4.41 | 2/3 | 5/9 |
| A57V+T59K+S62E | 1.84 | 3/3 | 2/9 |
| A40D+R60A+R99P | 3.86 | 1/3 | 1/9 |
| S26E+R34V+Q95R | nd | 0/3 | 1/9 |
| A57P+S62L+L102G | nd | 0/3 | 2/9 |
| Y31A+N37H+Q96W | 3.86 | 2/3 | 2/9 |
| S25K+S38A+Q95M | 4.77 | 2/3 | 1/9 |
| V29R+N37W+P101E | 2.42 | 2/3 | 0/9 |
| K24D+W56S+S62D | 0.13 | 3/3 | 3/9 |
| S25Q+S38P+Q95G | 2.56 | 3/3 | 1/9 |
| L30N+N35A+A40Y | 3.39 | 1/3 | 1/9 |
| S25Y+Q27E+E61F | 1.41 | 3/3 | 1/9 |
| K24A+S33K+N35W | 3.05 | 2/3 | 1/9 |
| S25A+E32S+S38F | 2.42 | 2/3 | 1/9 |
| S25M+V29E | -0.09 | 3/3 | 3/9 |
| S28P+V39T+T59K | nd | 0/3 | 0/9 |
| V39L+W56F+H98E | 2.00 | 3/3 | 1/9 |
| N37R+R99L+P101Q | 4.38 | 2/3 | 1/9 |
| S26D+V39N+E61F | nd | 0/3 | 4/9 |
| V29H+S38I+W56N | 0.68 | 3/3 | 1/9 |
| T59G+E61A+Y97G | nd | 0/3 | 0/9 |
| A57L+T59F+Q95E | 3.26 | 1/3 | 1/9 |
| S25I+V29H+A57D | 1.99 | 3/3 | 0/9 |

The remaining entries, values ahead:

| mean, log10 nM | replicates with signal | empty controls | changes |
|---|---|---|---|
| 3.74 | 1/3 | 3/9 | S25C+R60H+Q95K |
| nd | 0/3 | 0/9 | A57K+Q96K+R99Y |
| nd | 0/3 | 3/9 | S38V+Y97T+H98A |
| nd | 0/3 | 0/9 | A40D+S103E |
| 1.45 | 3/3 | 1/9 | E32Q+W56Q+L102Q |
| 0.49 | 3/3 | 0/9 | K24S+S33A+A57G |
| 1.71 | 3/3 | 0/9 | V29M+K36I+N37T |
| 0.28 | 3/3 | 0/9 | S25M+Q27D+V29G |
| 3.31 | 1/3 | 0/9 | K24P+Y97L+P101Q |
| 1.60 | 3/3 | 7/9 | S28D+K36D+N37R |
| 2.61 | 1/3 | 0/9 | V29A+N37W+R60F |
| 4.41 | 2/3 | 2/9 | S58A+T59C+E61W |
| 1.90 | 3/3 | 4/9 | L30W+Y31M+T59G |
| nd | 0/3 | 3/9 | K24A+S28F+E32N |
| nd | 0/3 | 1/9 | S33A+R60S+Q95P |
| nd | 0/3 | 0/9 | K24V+N35D+R60I |
| nd | 0/3 | 0/9 | V39A+A57N+H98Q |
| 3.56 | 3/3 | 0/9 | Q27D+Y31R+Y97P |
| nd | 0/3 | 0/9 | K24A+A57M+S103N |
| 4.41 | 2/3 | 4/9 | S28N+S62F+P101L |
| 0.98 | 3/3 | 2/9 | S25Q+V29P+H98V |
| nd | 0/3 | 1/9 | N37M+W56F+P101C |
| 1.10 | 3/3 | 2/9 | K36Q+T59C |
| 4.72 | 2/3 | 2/9 | L30E+T59H+Y97M |
| nd | 0/3 | 0/9 | K24A+K36I+S62K |
| nd | 0/3 | 1/9 | Y31R+K36L+W56S |
| 3.08 | 3/3 | 5/9 | S28H+Y31V+N35L |

The opening 3 entries, copied out:

| changes | mean, log10 nM | replicates with signal | empty controls |
|---|---|---|---|
| S25N+S28A+K36G | 1.48 | 3/3 | 0/9 |
| S58T+R60G+Q95W | nd | 0/3 | 1/9 |
| Q27A+N35W+P101D | nd | 0/3 | 3/9 |